From EP4834906A1, “PYRAZOLOPYRIMIDINE COMPOUND AND PHARMACEUTICAL USE THEREOF” (dated 2026)

Amino acid sequences for entries named in this document (tags omitted).
UniProt Q12809, whole entry: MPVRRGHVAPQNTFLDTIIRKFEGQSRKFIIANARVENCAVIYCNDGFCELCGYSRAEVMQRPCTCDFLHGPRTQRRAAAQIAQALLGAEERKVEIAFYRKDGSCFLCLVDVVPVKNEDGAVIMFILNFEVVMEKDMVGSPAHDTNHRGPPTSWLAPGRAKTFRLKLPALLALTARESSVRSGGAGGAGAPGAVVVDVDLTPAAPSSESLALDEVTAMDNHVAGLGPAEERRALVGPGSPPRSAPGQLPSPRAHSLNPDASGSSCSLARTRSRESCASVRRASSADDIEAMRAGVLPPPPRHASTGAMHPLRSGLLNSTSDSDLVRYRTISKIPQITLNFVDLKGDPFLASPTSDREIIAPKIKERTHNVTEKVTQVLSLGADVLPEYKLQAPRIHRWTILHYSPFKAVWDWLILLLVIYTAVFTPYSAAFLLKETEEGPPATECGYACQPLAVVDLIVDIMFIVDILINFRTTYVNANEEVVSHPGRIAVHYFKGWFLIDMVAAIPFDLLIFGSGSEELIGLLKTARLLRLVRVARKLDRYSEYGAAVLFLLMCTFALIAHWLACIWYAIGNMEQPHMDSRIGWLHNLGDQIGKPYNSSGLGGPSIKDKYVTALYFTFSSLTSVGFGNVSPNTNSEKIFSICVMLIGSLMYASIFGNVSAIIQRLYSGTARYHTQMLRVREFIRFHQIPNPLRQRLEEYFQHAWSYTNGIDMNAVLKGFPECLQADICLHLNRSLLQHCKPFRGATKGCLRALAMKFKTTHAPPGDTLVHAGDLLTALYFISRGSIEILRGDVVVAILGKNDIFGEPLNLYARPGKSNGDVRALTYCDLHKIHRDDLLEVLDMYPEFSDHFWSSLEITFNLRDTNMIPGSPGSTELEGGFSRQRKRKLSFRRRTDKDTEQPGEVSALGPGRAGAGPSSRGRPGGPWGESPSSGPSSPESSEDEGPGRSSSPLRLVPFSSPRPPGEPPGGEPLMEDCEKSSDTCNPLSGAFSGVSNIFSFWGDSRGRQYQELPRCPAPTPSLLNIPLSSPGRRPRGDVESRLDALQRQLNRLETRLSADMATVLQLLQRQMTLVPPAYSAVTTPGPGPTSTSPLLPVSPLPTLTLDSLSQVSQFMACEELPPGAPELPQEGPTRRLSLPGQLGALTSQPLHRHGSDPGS
UniProt P05177, whole entry: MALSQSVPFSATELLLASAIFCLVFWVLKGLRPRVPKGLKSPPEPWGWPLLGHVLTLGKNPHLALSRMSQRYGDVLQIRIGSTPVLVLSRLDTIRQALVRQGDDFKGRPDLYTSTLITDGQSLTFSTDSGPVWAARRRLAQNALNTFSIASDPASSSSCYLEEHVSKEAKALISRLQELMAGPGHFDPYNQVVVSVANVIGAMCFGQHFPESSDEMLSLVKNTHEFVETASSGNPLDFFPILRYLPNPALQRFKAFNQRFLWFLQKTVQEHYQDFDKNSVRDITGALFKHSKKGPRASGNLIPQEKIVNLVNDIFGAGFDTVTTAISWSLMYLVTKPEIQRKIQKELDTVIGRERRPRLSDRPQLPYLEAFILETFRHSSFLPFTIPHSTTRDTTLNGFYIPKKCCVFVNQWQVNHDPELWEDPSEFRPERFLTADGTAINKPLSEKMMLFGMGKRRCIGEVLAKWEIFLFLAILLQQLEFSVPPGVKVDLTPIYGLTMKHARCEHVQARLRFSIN
UniProt P20813, whole entry: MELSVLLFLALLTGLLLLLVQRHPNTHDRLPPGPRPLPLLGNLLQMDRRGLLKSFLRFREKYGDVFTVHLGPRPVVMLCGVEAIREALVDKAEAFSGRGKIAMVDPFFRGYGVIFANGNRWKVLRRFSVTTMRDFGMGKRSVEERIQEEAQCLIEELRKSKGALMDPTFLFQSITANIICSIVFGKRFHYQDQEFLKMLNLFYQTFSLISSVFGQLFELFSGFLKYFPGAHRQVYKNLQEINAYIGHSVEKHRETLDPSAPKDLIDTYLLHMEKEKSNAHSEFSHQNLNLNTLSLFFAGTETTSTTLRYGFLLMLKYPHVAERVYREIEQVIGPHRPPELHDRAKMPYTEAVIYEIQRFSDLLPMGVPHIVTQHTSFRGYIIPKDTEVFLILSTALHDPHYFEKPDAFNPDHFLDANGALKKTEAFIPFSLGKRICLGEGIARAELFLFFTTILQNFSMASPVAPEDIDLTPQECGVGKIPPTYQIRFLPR
UniProt P33261, whole entry: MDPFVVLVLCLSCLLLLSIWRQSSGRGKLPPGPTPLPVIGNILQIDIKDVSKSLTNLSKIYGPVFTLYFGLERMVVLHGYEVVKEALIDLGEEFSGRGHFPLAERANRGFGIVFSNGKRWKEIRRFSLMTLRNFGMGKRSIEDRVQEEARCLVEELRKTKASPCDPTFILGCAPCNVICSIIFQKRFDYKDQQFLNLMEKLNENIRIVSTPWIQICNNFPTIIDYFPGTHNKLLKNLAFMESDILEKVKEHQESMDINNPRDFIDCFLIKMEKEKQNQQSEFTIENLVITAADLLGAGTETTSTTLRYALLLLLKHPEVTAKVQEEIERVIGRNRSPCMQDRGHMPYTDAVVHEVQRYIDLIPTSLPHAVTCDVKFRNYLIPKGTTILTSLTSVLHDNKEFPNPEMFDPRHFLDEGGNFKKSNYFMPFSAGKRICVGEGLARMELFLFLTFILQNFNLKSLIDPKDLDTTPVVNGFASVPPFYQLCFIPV
UniProt P10632, whole entry: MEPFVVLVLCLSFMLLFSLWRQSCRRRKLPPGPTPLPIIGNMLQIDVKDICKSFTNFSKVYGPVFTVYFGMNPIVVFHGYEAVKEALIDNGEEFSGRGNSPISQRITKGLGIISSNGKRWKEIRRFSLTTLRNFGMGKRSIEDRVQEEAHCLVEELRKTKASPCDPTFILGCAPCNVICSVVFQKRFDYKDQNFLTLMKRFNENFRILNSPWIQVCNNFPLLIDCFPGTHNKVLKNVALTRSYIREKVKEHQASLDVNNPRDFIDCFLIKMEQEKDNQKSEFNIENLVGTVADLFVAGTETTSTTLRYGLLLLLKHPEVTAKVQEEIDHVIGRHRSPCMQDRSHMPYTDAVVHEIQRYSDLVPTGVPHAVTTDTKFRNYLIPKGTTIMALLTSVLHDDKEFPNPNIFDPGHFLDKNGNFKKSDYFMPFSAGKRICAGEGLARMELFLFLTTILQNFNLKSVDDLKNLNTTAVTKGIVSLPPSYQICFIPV
UniProt P11712, whole entry: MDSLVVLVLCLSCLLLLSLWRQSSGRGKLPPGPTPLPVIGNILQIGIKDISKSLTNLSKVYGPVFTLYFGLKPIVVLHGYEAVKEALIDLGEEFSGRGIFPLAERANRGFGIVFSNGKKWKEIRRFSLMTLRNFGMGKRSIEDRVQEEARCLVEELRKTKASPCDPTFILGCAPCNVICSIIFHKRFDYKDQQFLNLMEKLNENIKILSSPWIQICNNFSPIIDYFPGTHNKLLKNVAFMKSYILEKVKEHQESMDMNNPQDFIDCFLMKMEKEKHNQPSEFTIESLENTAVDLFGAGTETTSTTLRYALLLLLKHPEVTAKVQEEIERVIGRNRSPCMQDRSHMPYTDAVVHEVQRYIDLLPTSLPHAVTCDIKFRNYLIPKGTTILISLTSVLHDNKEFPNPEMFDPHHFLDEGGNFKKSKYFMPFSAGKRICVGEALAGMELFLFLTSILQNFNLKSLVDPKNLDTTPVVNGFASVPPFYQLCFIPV
UniProt P10635, whole entry: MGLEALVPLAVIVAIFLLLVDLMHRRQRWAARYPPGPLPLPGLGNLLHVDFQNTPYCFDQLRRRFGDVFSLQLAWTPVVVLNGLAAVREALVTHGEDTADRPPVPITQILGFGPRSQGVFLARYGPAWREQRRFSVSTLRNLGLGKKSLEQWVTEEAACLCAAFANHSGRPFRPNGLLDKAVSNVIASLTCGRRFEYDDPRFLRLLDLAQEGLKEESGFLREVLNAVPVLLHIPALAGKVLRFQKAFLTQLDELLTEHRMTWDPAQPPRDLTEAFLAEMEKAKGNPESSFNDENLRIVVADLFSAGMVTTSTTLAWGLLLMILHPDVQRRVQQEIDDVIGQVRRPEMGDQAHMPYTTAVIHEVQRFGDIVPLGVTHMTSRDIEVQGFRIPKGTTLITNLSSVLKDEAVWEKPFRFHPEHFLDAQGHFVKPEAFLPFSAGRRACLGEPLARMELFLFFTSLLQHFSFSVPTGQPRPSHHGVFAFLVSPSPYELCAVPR

Experiments:
human hERG ion channels = human hERG ion channels (Homo sapiens, UniProt Q12809); assay: hERG current inhibition, conventional patch clamp in HEK293 cells; settings: percentage inhibition of the hERG current at 10 µM
Description: The inhibitory effects of compounds on human hERG ion channels stably expressed in HEK293 cells were evaluated using conventional patch-clamp techniques. Test compounds were prepared at a concentration of 10 µM. Each cell served as its own control. All compounds were perfused using a gravity-driven perfusion system. After stabilization of the hERG current, the current magnitudes before and after compound addition were compared for each cell. The percentage inhibition of the hERG current by each compound was then calculated. Table 3: Percentage inhibition of the hERG current by compounds

[1] = Metabolic stability in human liver microsomes (NADPH + UDPGA); settings: human liver microsomes 1.0 mg/mL, NADPH and UDPGA, 37°C
Excerpt: (§1) A certain amount of anhydrous sodium dihydrogen phosphate was weighed into a centrifuge tube, followed by addition of an appropriate amount of ultrapure water with vortex mixing to prepare a 0.1 mol/L sodium dihydrogen phosphate solution for later use. A certain amount of anhydrous disodium hydrogen phosphate was weighed into a centrifuge tube, followed by addition of an appropriate amount of ultrapure water with vortex mixing to prepare a 0.1 mol/L disodium hydrogen phosphate solution for later use. The sodium dihydrogen phosphate solution (0.1 mol/L) and the disodium hydrogen phosphate solution (0.1 mol/L) were mixed at a ratio of 19:81 (v:v) in a reagent bottle, and mixed thoroughly to obtain a 100 mmol/L phosphate buffer (PB) (concentration calculated based on phosphate ion concentration), which was stored at 2 to 8°C for later use.
(§2) An appropriate amount of NADPH was precisely weighed into a 1.5 mL centrifuge tube, followed by addition of an appropriate amount of PB with vortex mixing to prepare a 40 mmol/L NADPH solution, which was placed on ice for later use. An appropriate amount of UDPGA was precisely weighed into a 1.5 mL centrifuge tube, followed by addition of an appropriate amount of PB with vortex mixing to prepare a 40 mmol/L UDPGA solution, which was placed on ice for later use. Equal volumes of the NADPH and UDPGA solutions were pipetted into the same centrifuge tube with vortex mixing to prepare a mixture of NADPH and UDPGA (containing 20 mmol/L NADPH and 20 mmol/L UDPGA), which was placed on ice for later use.
(§3) An appropriate amount of testosterone reference standard was precisely weighed and dissolved in DMSO with vortex mixing to prepare a 20 mmol/L testosterone stock solution, which was stored in a -20°C freezer. An appropriate amount of 7-hydroxycoumarin reference standard was precisely weighed and dissolved in DMSO with vortex mixing to prepare a 20 mmol/L 7-hydroxycoumarin stock solution, which was stored in a -20°C freezer. Equal volumes of the testosterone and 7-hydroxycoumarin stock solutions were pipetted into the same 1.5 mL centrifuge tube and diluted with 50% methanol-water to prepare a 20 µmol/L mixed substrate working solution, which was placed on ice for later use. […]
(§4) The study consisted of three groups: a positive control group (PC), a negative control group (NC), and a treatment group. […] The remaining amount of test compound in the sample was quantified by LC-MS/MS. Metabolic stability of the test compounds in liver microsomes was evaluated by comparing compound concentrations at different reaction times were compared with those measured at T0. […]

[2] = Metabolic stability in rat liver microsomes (NADPH + UDPGA); settings: rat liver microsomes 1.0 mg/mL, NADPH and UDPGA, 37°C
Excerpt: as §1, §2, §3, §4

[3] = Metabolic stability in mouse liver microsomes (NADPH + UDPGA); settings: mouse liver microsomes 1.0 mg/mL, NADPH and UDPGA, 37°C
Excerpt: as §1, §2, §3, §4

[4] = In vivo pharmacokinetics in rats; settings: male SD rats, PO, 5 mg/kg; for AUC / Cmax / t1/2: plasma
Description: Male SD rats were fasted overnight (with free access to drinking water) and divided into an intravenous administration (IV) group and an intragastric administration (PO) group. For the IV group, blood samples (approximately 0.3 mL of blood per sample) were collected from the orbital venous plexus at 2 min, 10 min, 30 min, 1 h, 2 h, 4 h, 6 h, 8 h, and 24 h following administration. The samples were anticoagulated with disodium ethylenediaminetetraacetate (EDTA-2Na), placed on ice immediately after collection, and centrifuged at 4°C for 10 minutes within 1 hour to separate the plasma, which was stored at - 20°C for analysis. For the PO group, blood samples (0.3 mL) were collected from the orbital venous plexus at 5 min, 15 min, 30 min, 1 h, 2 h, 4 h, 6 h, 8 h, and 24 h following administration. Sample processing was identical to that used for the IV group. Plasma concentrations of the parent compounds were determined by LC-MS/MS. Pharmacokinetic parameters were calculated using Phoenix WinNonlin 8.1 based on plasma concentration-time data collected at different time points. Table 5: Results of in vivo pharmacokinetic studies of selected compounds in rats

[5] = 28-day oral gavage toxicity evaluation in SD rats; settings: oral gavage 30 and 100 mg/kg, 28 days
Description: Eight male and eight female SD rats were randomly divided into groups as follows: normal control group (2 rats per sex), low-dose group (3 rats per sex per group), and high-dose group (3 rats per sex per group). The low-dose and high-dose groups received Compound 4 hydrochloride solutions at concentrations of 3 and 10 mg/mL (calculated as the free base) by oral gavage, respectively. The administration volume was 10 mL/kg, corresponding to doses of 30 and 100 mg/kg, respectively. The normal control group received an equivalent volume of vehicle (water). During the experiment, the rats had free access to drinking water and were administered continuously for 28 days. On the day following the final administration, blood samples were collected for measurement of 23 routine hematological and biochemical parameters. Gross necropsy examinations were performed on the heart, liver, spleen, lungs, kidneys, brain, gastrointestinal tract, thymus, testes (or ovaries), and other organs.

CYP1A2 = CYP1A2 (Homo sapiens, UniProt P05177); assay: CYP450 inhibition in human liver microsomes; settings: CYP1A2, substrate Phenacetin, human liver microsomes 0.2 mg/mL, incubation 15 min
Description: (§5) Disodium hydrogen phosphate was dissolved in ultrapure water by sonication to prepare a 100 mM solution (designated as Solution A). Potassium dihydrogen phosphate was dissolved in ultrapure water by sonication to prepare a 100 mM solution (designated as Solution B). Solution B was slowly added to Solution A under stirring until the pH reached 7.4. The phosphate buffer was stored at 4°C for later use. Ultrapure water was produced using a Sartorius ultrapure water system.
(§6) The positive control was prepared as a 10 mM DMSO stock solution. The volume ratio of the organic solvent introduced into the assay system along with the test compound was 1.0%.
(§7) Substrate stock solutions were prepared as shown in Table 7 below and stored in a - 20°C freezer. The stock solutions were thawed at room temperature before use.
(§8) Compound 4 hydrochloride was prepared as a 5 mM DMSO stock solution. The volume ratio of the organic solvent introduced into the assay system along with the test compound was 1.0%.
(§9) Human liver microsomes were purchased from BIOIVT (Cat. No. 452117, Lot No. SEU). The stock concentration was 20 mg/mL. The working concentration of the human liver microsomes and the final concentration in the reaction system are shown in Table 9 below.
(§10) Prior to the experiment, 13.14 mg of NADPH (Roche, Cat. No. 10107824001, Lot No. 71466624) was weighed and dissolved in 1.545 mL of PB to prepare a 10 mM working solution. The final concentration of NADPH in the assay system was 1 mM.
(§11) 7. All incubations were performed in a 1.5 mL centrifuge tube. First, 2 µL of the Compound 4 hydrochloride working solution or positive control working solution was added to the corresponding centrifuge tube. For the inhibitor-free group, 2 µL of DMSO:MeOH (1:1) solvent was added. Subsequently, 20 µL of the mixed substrate working solution and 158 µL of the liver microsome working solution were added. The mixture was pre-incubated in a water bath at 37°C for 5 minutes. The reaction was initiated by adding 20 µL of NADPH cofactor. The mixture was then further incubated at 37°C for the designated periods (see Table 10). All samples were prepared in duplicate.
(§12) After incubation, the reaction was terminated by adding 400 µL of ice-cold stop solution (methanol containing 1 ng/mL LMTA). The samples were vortexed and centrifuged at 17000 g and 4°C for 10 minutes. 180 µL of the supernatant was transferred into a 96-well plate for LC-MS/MS analysis.
(§13) Relative activity was calculated using the following equation: Relative activity (NC) = amount of metabolite produced in the treatment group or positive control group / average amount of metabolite produced in the negative control group; Inhibition (%) = (1 - NC) × 100%. Table 10: Inhibitory effect of Compound 4 hydrochloride on CYP450 isoforms

CYP2B6 = CYP2B6 (Homo sapiens, UniProt P20813); assay: CYP450 inhibition in human liver microsomes; settings: CYP2B6, substrate Bupropion HCl, human liver microsomes 0.2 mg/mL, incubation 45 min
Description: as §5, §6, §7, §8, §9, §10, §11, §12, §13

CYP2C19 = CYP2C19 (Homo sapiens, UniProt P33261); assay: CYP450 inhibition in human liver microsomes; settings: CYP2C19, substrate S-Mephenytoin, human liver microsomes 0.5 mg/mL, incubation 45 min
Description: as §5, §6, §7, §8, §9, §10, §11, §12, §13

CYP2C8 = CYP2C8 (Homo sapiens, UniProt P10632); assay: CYP450 inhibition in human liver microsomes; settings: CYP2C8, substrate Amodiaquine HCl, human liver microsomes 0.2 mg/mL, incubation 15 min
Description: as §5, §6, §7, §8, §9, §10, §11, §12, §13

CYP2C9 = CYP2C9 (Homo sapiens, UniProt P11712); assay: CYP450 inhibition in human liver microsomes; settings: CYP2C9, substrate Diclofenac, human liver microsomes 0.2 mg/mL, incubation 15 min
Description: as §5, §6, §7, §8, §9, §10, §11, §12, §13

CYP2D6 = CYP2D6 (Homo sapiens, UniProt P10635); assay: CYP450 inhibition in human liver microsomes; settings: CYP2D6, substrate Dextromethorphan HBr, human liver microsomes 0.2 mg/mL, incubation 20 min
Description: as §5, §6, §7, §8, §9, §10, §11, §12, §13

Row | Structure (SMILES) | hERG% at 10 µM (human hERG ion channels) | 60-min remaining (%) Human [1] | 60-min remaining (%) Rat [2] | 60-min remaining (%) Mouse [3] | F (%) [4] | AUC [4] | Cmax [4] | t1/2 [4] | Gross pathological examination of organs (surface color, shape, size, texture) [5] | Hematological and biochemical parameters compared with the normal group [5] | effect on body weight [5] | toxic reactions [5] | Inhibition (%) at 10 µM (CYP1A2) | Inhibition (%) at 10 µM (CYP2B6) | Inhibition (%) at 10 µM (CYP2C19) | Inhibition (%) at 10 µM (CYP2C8) | Inhibition (%) at 10 µM (CYP2C9) | Inhibition (%) at 10 µM (CYP2D6)
1 | Cc1cc(C(F)(F)F)cc(O)c1-n1cc2cnc(N[C@@H]3CCCN(C)C3)nc2n1 | 27.7% | 93.10% | 97.99% | 93.99% | 74.8% | 38296.3 ng·h/mL | 5442.0 ng/mL | 4.05 h | no significant pathological changes | no significant abnormalities | no significant effect on body weight | no obvious toxic reactions were observed | 11.5% | 21.8% | 9.7% | 7.1% | -0.4% | -1.6%
2 | Cc1cc(Cl)cc(O)c1-n1cc2cnc(N[C@@H]3CCCN(C)C3)nc2n1 | 9.3% | 86.56% | 86.09% | 82.57% | 99.8% | 8804.2 ng·h/mL | 1934.7 ng/mL | 2.95 h |  |  |  |  |  |  |  |  |  | 
3 | Cc1cc(C2CC2)cc(O)c1-n1cc2cnc(N[C@@H]3CCCN(C)C3)nc2n1 |  | 88.14% | 88.14% | 95.62% |  |  |  |  |  |  |  |  |  |  |  |  |  | 
4 | C#Cc1cc(C)c(-n2cc3cnc(N[C@@H]4CCCN(C)C4)nc3n2)c(O)c1 |  | 95.34% | 94.68% | 92.13% |  |  |  |  |  |  |  |  |  |  |  |  |  | 
